The record followed here is ChEMBL document CHEMBL1143255, “Standard protecting groups create potent and selective kappa opioids: salvinorin B alkoxymethyl ethers” (Bioorg Med Chem, 2008).

The chains behind the UniProt entries cited, without tags or fusion partners. Where a name states a change or a piece, a line headed by the entry shows the natural chain unless it says otherwise.
UniProt P41145: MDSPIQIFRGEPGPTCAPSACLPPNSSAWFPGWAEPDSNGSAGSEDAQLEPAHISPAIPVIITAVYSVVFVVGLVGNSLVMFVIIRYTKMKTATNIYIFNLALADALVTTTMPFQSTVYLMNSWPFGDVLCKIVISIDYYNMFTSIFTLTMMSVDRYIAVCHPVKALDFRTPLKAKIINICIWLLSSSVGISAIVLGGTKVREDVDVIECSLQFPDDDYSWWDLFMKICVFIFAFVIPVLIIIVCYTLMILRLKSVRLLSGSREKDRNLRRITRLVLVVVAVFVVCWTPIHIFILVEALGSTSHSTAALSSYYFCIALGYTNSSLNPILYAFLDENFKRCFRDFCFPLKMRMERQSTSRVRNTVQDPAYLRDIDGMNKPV

The target of test [1] is T1, Kappa-type opioid receptor (Homo sapiens, UniProt P41145). Nature of the test: Displacement of [3H]diprenorphine from human kappa opioid receptor expressed in CHO cells. In kind it is cell-based. In outline: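 Competitive inhibition of [3H]diprenorphine binding to membranes from CHO cells stably transfected with human κ, rat μ or mouse δ receptor; testing blinded to compound identity and molecular mass; mean of three independent experiments in duplicate.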
On the technique in general: Displacement assays read how much labelled ligand stays bound in the presence of the test substance.

In test [2] the target is T1, Kappa-type opioid receptor. The test can be described thus: Agonist activity at human kappa opioid receptor expressed in CHO cells assessed as stimulation of [35S]GTPgammaS binding. The class given is functional, cell-based. The essentials:
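Potency and efficacy from [35S]GTPγS binding to membranes of CHO cells stably expressing human κ receptor; testing blinded to compound identity and molecular mass.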

pEC50, pKi: −log10 of the molar value.

Molecule `CCOC(C)O[C@H]1C[C@@H](C(=O)OC)[C@]2(C)CC[C@H]3C(=O)O[C@H](c4ccoc4)C[C@]3(C)[C@H]2C1=O` (some centres undefined) [listing 1 of 2 here] showed a pKi in test [1] of 8.18. The pEC50 in test [2] is 8.24.
On the same counts, the results for `CCOC(C)O[C@H]1C[C@@H](C(=O)OC)[C@]2(C)CC[C@H]3C(=O)O[C@H](c4ccoc4)C[C@]3(C)[C@H]2C1=O` (some centres undefined) [listing 2 of 2 here] are 7.96 and 8.00.

As usually defined, the pKi is −log10 of the Ki, conventionally taken in molar units. A lower pKi goes with a large Ki. A word on the pEC50: it is −log10 of the EC50, conventionally taken in molar units.
